Values quoted from earlier work as cited in patent US20060210614A1, “Method of treatment of a metabolic disease using intranasal administration of exendin peptide” (Nastech Pharmaceutical Company Inc., priority 2003, published 2006).

Conditions: intraduodenal, rats, with 1% (w/v) saline dispersion of polycarbophil; cited from earlier work

Substance: 9-desglycinamide, 8-arginine vasopressin [DGAVP]
- Fold increase in bioavailability compared to aqueous solution without polymer: 3-5 fold
